This passage reports viability results from PubChem BioAssay AID580 (SRMLSC, 2007).

Only a part is listed here, and it is no random draw. Calls of active or inactive are those of the source.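 Rule for the calls: active = viability at or under a set limit in both replicates, limit being median viability minus 3 SD (cut at about 48% in these data, passing the limit was not always enough); inconclusive = at or under the limit in just one replicate; inactive = at or above the limit in both replicates.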

A short description of the assay: H69AR cell proliferation blockers – human, duplicate replicates, primary screen (AID 580).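 Note: 100% = mean luminescence of untreated wells and 0% = no signal.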 Particulars: H69AR lung tumor cells viability, ATP luminescence, 72 h; at 10 µM; hits give low values.
By viability is commonly meant the share of living cells, or the viability signal relative to a control. `Fc1ccccc1NC1CCN(Cc2ccccc2)CC1`: the viability is inactive: 85.8%.
